Reference: PubChem BioAssay AID504648 (National Center for Advancing Translational Sciences (NCATS), 2011)
This is a selection; strong and weak results do not stand in their true shares. Inconclusive results are not listed. Calls of active or inactive are those of the source. The call rests on the fitted dose curve; in most records, active means well fitted inhibition curve with a large enough effect; inconclusive means small, poorly fitted or top-dose-only effect, or effect the other way, or another doubt; inactive means no such curve, though single readings can be large or run the other way.

Assay: Nrf2 qHTS screen for inhibitors: counterscreen for cytotoxicity
Settings: A549 ARE-Fluc cells, CellTiter-Fluor viability, 18-24 h; at 46 µM (top of the series)
Source text: NIH Molecular Libraries Probe Production Network [MLPCN]
NIH Chemical Genomics Center [NCGC]
Assay Provider: Shyam Biswal, Johns Hopkins University
Nrf2 is a transcription factor that maintains cellular redox homoestasis and protects cells from xenobiotics. Nrf2 binds to the antioxidant response element (ARE) to induce gene expression of a broad spectrum of genes that encode for antioxidants. […] Finding a small molecule that act as an inhibitor of Nrf2 function would represent a novel therapeutic target that could lead to improvement in survival of patients undergoing chemo- and/or radio- therapy.
So here we implemented a counterscreen to weed out the cytotoxic compounds.
1. Shibata, T., et al., Genetic Alteration of Keap1 Confers Constitutive Nrf2 Activation and Resistance to Chemotherapy in Gallbladder Cancer. Gastroenterology, 2008.
2. Sjoblom, T., et al., The consensus coding sequences of human breast and colorectal cancers. Science, 2006. 314(5797): p. 268-74.
NCGC Assay Protocol Summary:
A concentration-response assay was performed with A549 ARE_Fluc cells which are suspended in 5% FBS OPTI-MEM. Five uL were dispensed into 1536-well white TC-treated plate using the Kalypsys dispenser to achieve a density of 5000 cells/well in all columns except column 1. The plate is incubated at 37deg C at 5% CO2 for 2 hours before 23 nL of compounds are added with the Kalypsys pin tool equipped with a 1,536-pin array containing 10-nL slotted pins (FP1S10, 0.457-mm diameter, 50.8 mm long; V&P Scientific). The control compounds Budesonide and Staurosporine are both added at a concentration of 2mM and Budesonide is also added as a 1:10 titration, starting at 200uM, to achieve dose-response. After an 18-24 hour incubation at 37deg C at 5% CO2, 5ul of medium is added to column 1. Afterwards 1ul of 5x of CellTiter-Fluor (Promega) is added to every well. The plate is then incubated at 37deg C at 5% CO2 for 30 minutes before they are read on the ViewLux (Perkin Elmer) for a fluorescent read Ex=405(10)/Em=525(10) for a 3 second exposure, 2x binning, and high gain. Then 3 uL of 3x BugLite is dispensed into all wells and the plate is incubated at ambient room temperature for 15 minutes. Afterwards another ViewLux read is performed using the clear filter to get a luminescent read with the settings of 40 second exposure, 2x binning, and high gain. Cytotoxicity is assessed through the first fluorescent read and then biochemical activity against Nrf2 is measured in the luminescent read.
On the % scale 0 is the no-effect control and ±100 the full control effect.

| SMILES | activity change, negative = cytotoxicity |
| --- | --- |
| CN1CCCCC1COC(=O)C1(O)c2ccccc2CCc2ccccc21 (stereo not drawn) | inactive: -19% |
| CCN(CC)CCCOC(=O)C(O)(c1ccccc1)c1ccccc1 | inactive: 9.91% |
| O=C(OCCCN1CCCC1)C(O)(c1ccccc1)C1CCCCC1 (stereo not drawn) | inactive: -0.0421% |
| CCN(CC)CC(O)COC(=O)C(O)(c1ccccc1)C1CCCCC1 (stereo not drawn) | inactive: -3.41% |
| CN(C)CCOC(=O)C(O)(c1ccccc1)C1CCCC1 (stereo not drawn) | inactive: -5.22% |
| O=C(OCCN1CCN(CCOCc2ccccc2)CC1)C(O)(c1ccccc1)c1ccccc1 | inactive: -11.6% |
| CCN(CC)CCCOC(=O)C(O)(c1ccccc1)C1CCCCC1 (stereo not drawn) | inactive: -0.681% |
| O=[N+]([O-])c1ccc(OP2(=O)COCCO2)cc1 (stereo not drawn) | inactive: 8.08% |
